Experiments:
JAK1 = JAK1 (Homo sapiens, UniProt P23458); assay: Biochemical JAK1 kinase assay (LanthaScreen)
Description: (§1) A panel of four LanthaScreen JAK biochemical assays (JAK1, 2, 3 and Tyk2) were carried in a common kinase reaction buffer (50 mM HEPES, pH 7.5, 0.01% Brij-35, 10 mM MgCl2, and 1 mM EGTA). Recombinant GST-tagged JAK enzymes and a GFP-tagged STAT1 peptide substrate were obtained from Life Technologies.
Serially or discretely diluted compounds were pre-incubated with each of the four JAK enzymes and the substrate in white 384-well microplates (Corning) at ambient temperature for 1 h. ATP was subsequently added to initiate the kinase reactions in 10 μL total volume, with 1% DMSO. The final enzyme concentrations for JAK1, 2, 3 and Tyk2 are 4.2 nM, 0.1 nM, 1 nM, and 0.25 nM respectively; the corresponding Km ATP concentrations used are 25 μM, 3 μM, 1.6 μM, and 10 μM; while the substrate concentration is 200 nM for all four assays. Kinase reactions were allowed to proceed for 1 hour at ambient temperature before a 10 μL preparation of EDTA (10 mM final concentration) and Tb-anti-pSTAT1 (pTyr701) antibody (Life Technologies, 2 nM final concentration) in TR-FRET dilution buffer (Life Technologies) was added. The plates were allowed to incubate at ambient temperature for 1 h before being read on the EnVision reader (Perkin Elmer). Emission ratio signals (520 nm/495 nm) were recorded and utilized to calculate the percent inhibition values based on DMSO and background controls.
(§2) For dose-response analysis, percent inhibition data were plotted vs. compound concentrations, and IC50 values were determined from a 4-parameter robust fit model with the Prism software (GraphPad Software). Results were expressed as pIC50 (negative logarithm of IC50) and subsequently converted to pKi (negative logarithm of dissociation constant, Ki) using the Cheng-Prusoff equation.

Sequences of proteins named here, by UniProt entry; tags and fusion partners are left off.
UniProt P23458, whole entry: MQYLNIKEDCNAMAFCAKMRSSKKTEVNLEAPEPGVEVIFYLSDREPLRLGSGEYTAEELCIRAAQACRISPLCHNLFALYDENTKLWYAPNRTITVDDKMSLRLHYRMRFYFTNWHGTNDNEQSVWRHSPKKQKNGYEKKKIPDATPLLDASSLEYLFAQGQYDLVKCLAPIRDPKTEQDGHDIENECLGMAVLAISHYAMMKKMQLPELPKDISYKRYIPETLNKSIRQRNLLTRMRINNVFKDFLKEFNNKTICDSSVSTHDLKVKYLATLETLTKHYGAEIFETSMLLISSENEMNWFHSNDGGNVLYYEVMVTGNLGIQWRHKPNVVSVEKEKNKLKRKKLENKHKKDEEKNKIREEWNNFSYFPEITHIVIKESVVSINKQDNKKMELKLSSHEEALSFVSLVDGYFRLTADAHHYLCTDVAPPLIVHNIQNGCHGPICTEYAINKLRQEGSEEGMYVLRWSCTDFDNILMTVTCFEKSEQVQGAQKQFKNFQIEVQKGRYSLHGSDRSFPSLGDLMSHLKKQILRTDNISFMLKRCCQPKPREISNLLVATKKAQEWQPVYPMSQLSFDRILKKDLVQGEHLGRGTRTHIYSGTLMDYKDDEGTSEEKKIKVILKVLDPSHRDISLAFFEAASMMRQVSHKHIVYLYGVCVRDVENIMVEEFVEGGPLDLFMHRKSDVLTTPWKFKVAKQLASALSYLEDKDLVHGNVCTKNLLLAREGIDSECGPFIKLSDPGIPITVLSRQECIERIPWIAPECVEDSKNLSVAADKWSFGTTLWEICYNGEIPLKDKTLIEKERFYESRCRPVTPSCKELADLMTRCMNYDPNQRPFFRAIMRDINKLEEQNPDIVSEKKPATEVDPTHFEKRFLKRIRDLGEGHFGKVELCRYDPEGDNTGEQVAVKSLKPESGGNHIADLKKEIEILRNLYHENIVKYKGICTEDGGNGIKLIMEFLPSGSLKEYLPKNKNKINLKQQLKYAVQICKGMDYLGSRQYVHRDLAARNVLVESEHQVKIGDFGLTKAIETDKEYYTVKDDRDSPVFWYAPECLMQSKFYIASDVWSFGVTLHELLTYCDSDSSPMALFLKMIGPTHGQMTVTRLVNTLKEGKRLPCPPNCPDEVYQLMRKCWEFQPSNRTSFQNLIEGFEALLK
UniProt P52333, whole entry: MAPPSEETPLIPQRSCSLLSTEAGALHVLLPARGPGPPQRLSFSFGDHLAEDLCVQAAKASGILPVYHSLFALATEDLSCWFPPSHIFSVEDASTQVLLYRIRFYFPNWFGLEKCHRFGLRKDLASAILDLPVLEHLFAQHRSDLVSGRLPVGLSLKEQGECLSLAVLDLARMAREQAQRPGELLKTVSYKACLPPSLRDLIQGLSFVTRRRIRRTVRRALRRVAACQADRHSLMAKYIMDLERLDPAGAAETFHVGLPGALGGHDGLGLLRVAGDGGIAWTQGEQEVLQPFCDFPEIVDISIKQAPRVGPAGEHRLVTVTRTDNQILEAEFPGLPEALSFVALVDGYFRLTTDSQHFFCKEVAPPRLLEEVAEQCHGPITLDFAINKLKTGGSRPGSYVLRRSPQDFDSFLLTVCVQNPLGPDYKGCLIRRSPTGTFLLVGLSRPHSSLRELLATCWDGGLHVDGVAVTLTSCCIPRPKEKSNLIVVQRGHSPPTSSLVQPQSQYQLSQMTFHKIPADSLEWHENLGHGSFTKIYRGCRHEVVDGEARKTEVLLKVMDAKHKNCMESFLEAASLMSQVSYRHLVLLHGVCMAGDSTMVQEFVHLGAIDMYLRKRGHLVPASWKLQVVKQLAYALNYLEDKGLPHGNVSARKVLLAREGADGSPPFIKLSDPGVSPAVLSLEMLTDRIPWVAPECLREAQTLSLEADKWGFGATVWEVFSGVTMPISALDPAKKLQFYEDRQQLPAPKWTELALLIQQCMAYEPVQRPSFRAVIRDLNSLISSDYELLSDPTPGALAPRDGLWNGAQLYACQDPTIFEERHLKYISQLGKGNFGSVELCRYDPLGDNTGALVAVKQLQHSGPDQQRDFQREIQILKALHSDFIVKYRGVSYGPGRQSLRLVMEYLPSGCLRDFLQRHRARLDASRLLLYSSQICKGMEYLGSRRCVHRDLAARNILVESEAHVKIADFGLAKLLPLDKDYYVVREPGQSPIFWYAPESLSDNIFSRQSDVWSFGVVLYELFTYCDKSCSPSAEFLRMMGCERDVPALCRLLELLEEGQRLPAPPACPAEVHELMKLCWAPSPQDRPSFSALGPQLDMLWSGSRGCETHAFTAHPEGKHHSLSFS
UniProt O60674, whole entry: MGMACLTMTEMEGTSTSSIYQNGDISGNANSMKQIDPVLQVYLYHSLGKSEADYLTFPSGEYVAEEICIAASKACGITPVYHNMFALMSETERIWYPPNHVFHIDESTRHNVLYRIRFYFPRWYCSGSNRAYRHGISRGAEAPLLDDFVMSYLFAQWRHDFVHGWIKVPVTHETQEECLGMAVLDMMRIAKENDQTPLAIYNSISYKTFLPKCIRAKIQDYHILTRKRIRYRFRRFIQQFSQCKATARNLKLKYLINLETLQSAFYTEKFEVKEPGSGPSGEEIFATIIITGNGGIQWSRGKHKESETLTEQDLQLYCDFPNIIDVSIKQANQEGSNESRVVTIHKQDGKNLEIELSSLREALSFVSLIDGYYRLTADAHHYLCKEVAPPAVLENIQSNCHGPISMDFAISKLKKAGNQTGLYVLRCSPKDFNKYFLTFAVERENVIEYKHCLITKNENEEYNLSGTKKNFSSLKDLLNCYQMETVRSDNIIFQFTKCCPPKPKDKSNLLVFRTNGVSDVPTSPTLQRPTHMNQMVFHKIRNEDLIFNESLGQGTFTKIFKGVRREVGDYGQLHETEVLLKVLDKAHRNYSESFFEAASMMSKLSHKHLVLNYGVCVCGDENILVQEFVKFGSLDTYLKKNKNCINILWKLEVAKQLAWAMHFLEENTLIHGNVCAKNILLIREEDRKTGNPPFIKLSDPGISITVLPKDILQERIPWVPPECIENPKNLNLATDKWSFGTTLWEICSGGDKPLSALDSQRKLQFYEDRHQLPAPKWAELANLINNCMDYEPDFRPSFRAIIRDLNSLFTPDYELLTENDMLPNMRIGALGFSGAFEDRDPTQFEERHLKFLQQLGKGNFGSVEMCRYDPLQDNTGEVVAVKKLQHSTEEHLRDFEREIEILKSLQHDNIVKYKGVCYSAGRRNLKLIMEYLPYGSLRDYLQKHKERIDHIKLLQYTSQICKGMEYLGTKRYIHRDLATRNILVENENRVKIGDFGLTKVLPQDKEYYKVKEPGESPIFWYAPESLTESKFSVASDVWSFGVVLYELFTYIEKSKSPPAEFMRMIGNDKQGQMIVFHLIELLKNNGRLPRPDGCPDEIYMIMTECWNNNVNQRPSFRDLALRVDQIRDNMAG
UniProt P29597, whole entry: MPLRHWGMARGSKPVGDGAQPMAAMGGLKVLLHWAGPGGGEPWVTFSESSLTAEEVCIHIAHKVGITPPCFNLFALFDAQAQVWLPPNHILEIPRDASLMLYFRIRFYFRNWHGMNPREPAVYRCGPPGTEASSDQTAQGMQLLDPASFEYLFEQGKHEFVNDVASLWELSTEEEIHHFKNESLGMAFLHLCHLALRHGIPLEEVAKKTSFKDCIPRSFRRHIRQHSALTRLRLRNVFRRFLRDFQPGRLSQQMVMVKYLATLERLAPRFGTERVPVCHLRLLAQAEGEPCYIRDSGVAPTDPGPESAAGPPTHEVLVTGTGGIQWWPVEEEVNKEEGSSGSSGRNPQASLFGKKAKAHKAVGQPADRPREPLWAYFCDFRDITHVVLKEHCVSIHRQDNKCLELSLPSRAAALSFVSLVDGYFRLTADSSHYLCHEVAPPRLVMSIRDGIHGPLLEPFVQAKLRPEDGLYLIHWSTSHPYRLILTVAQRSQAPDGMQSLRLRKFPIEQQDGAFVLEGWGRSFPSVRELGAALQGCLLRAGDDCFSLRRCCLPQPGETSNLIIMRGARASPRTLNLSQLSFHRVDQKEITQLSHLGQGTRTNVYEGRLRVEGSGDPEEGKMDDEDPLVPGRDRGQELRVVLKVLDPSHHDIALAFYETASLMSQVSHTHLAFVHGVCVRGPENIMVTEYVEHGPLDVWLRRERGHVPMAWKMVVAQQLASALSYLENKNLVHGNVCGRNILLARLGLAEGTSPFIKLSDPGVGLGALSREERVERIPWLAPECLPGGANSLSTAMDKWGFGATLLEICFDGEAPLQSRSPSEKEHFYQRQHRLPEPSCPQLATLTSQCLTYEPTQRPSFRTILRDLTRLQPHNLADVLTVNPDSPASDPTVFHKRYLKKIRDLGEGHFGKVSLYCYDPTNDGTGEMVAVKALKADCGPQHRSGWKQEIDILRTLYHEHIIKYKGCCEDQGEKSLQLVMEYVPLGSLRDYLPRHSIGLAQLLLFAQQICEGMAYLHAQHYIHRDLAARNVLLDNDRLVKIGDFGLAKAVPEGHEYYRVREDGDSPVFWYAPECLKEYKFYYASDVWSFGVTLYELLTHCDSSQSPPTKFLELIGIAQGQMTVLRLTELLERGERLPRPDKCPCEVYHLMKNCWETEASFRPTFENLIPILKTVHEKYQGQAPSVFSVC

JAK3 = JAK3 (Homo sapiens, UniProt P52333); assay: Biochemical JAK3 kinase assay (LanthaScreen)
[1] = system: IL-2 stimulated pSTAT5 in Tall-1 T cells; assay: Cellular JAK3 potency assay: inhibition of IL-2 stimulated pSTAT5 in Tall-1 T cells
JAK2 = JAK2 (Homo sapiens, UniProt O60674); assay: Biochemical JAK2 kinase assay (LanthaScreen)
Tyk2 = Tyk2 (Homo sapiens, UniProt P29597); assay: Biochemical Tyk2 kinase assay (LanthaScreen)
Description: as §1
Serially or discretely diluted compounds were pre-incubated with each of the four JAK enzymes and the substrate in white 384-well microplates (Corning) at ambient temperature for 1 h. ATP was subsequently added to initiate the kinase reactions in 10 μL total volume, with 1% DMSO. […] The plates were allowed to incubate at ambient temperature for 1 h before being read on the EnVision reader (Perkin Elmer). Emission ratio signals (520 nm/495 nm) were recorded and utilized to calculate the percent inhibition values based on DMSO and background controls.
as §2

[2] = selectivity JAK3 over JAK1, difference of pKi
[3] = IL-2 stimulated pSTAT5, Tall-1 T cells

With `C=CC(=O)N1CCCC(Cc2cc(-c3ccc(O)cc3)cc3[nH]ncc23)C1` (racemic) the “JAK 1 (pKi)” value (JAK1) was “E (a pKi value of 7 or below (Ki of 100 nM or above))”, the “JAK 3 (pKi)” value (JAK3) was “B (a pKi value between 9 and 10 (Ki between 1 nM and 0.1 nM))” and the “JAK3 (pKi)-JAK1 (pKi)” value (JAK3; [2]) was “A (a value of 3 or above)”. For the same compound, the “Tall-1 (pIC50)” value [1, 3] was “B (a pIC50 value between 6.7 (included) and 7.5 (IC50 between 200 nM and 32 nM))”.
With `CN(C)C/C=C/C(=O)N1CCCC(Cc2cc(-c3ccc(O)cc3)cc3[nH]ncc23)C1` (racemic) the “JAK 1 (pKi)” value (JAK1) was “E (a pKi value of 7 or below (Ki of 100 nM or above))”, the “JAK 3 (pKi)” value (JAK3) was “B (a pKi value between 9 and 10 (Ki between 1 nM and 0.1 nM))” and the “JAK3 (pKi)-JAK1 (pKi)” value (JAK3; [2]) was “A (a value of 3 or above)”. The “Tall-1 (pIC50)” value [1, 3] was “C (a pIC50 value between 6 and 6.7 (IC50 between 1 μM and 200 nM))”.
In the case of `C=CC(=O)N1CCC(Cc2cc(-c3ccc(O)cc3)cc3[nH]ncc23)C1` (racemic), the “JAK 1 (pKi)” value (JAK1) is reported as “E (a pKi value of 7 or below (Ki of 100 nM or above))”, the “JAK 3 (pKi)” value (JAK3) is reported as “C (a pKi value between 8 and 9 (Ki between 10 nM and 1 nM))” and the “JAK3 (pKi)-JAK1 (pKi)” value (JAK3; [2]) is reported as “B (a value of 2.3 to 3)”. The “Tall-1 (pIC50)” value [1, 3] was “B (a pIC50 value between 6.7 (included) and 7.5 (IC50 between 200 nM and 32 nM))”.
For `CN(C)C/C=C/C(=O)N1CCC(Cc2cc(-c3ccc(O)cc3)cc3[nH]ncc23)C1` (racemic), the “JAK 1 (pKi)” value (JAK1) was “E (a pKi value of 7 or below (Ki of 100 nM or above))”, the “JAK 3 (pKi)” value (JAK3) was “B (a pKi value between 9 and 10 (Ki between 1 nM and 0.1 nM))” and the “JAK3 (pKi)-JAK1 (pKi)” value (JAK3; [2]) was “A (a value of 3 or above)”. The “Tall-1 (pIC50)” value [1, 3] was “C (a pIC50 value between 6 and 6.7 (IC50 between 1 μM and 200 nM))”.
With `C=CC(=O)N1CC[C@H](Oc2cc(-c3ccc(O)c(Cl)c3)cc3[nH]nc(C#N)c23)C1` the “JAK 1 (pKi)” value (JAK1) was “E (a pKi value of 7 or below (Ki of 100 nM or above))”, the “JAK 2 (pKi)” value (JAK2) was “E (a pKi value of 7 or below (Ki of 100 nM or above))” and the “JAK 3 (pKi)” value (JAK3) was “B (a pKi value between 9 and 10 (Ki between 1 nM and 0.1 nM))”. The “JAK3 (pKi)-JAK1 (pKi)” value (JAK3; selectivity: difference of pKi JAK3 and pKi JAK1) was “A (a value of 3 or above)”, the “Tyk 2 (pKi)” value (Tyk2) was “E (a pKi value of 7 or below (Ki of 100 nM or above))” and the “Tall-1 (pIC50)” value ([1]; IL-2 stimulated pSTAT5 in Tall-1 T cells) was “C (a pIC50 value between 6 and 6.7 (IC50 between 1 μM and 200 nM))”.

From patent US10392368B2, “Pyrazolo and triazolo bicyclic compounds as JAK kinase inhibitors” (THERAVANCE BIOPHARMA R&D IP, LLC, priority 2017, dated 2019)
